Laboratory results taken from patent US11731967B2, “Inhibitors of TRIM33 and methods of use” (Dana-Farber Cancer Institute, Inc., priority 2017, dated 2023).
Where two headings read alike, the source gives them in different places.

The chains behind the UniProt entries cited, without tags or fusion partners.
UniProt Q9UPN9, whole entry: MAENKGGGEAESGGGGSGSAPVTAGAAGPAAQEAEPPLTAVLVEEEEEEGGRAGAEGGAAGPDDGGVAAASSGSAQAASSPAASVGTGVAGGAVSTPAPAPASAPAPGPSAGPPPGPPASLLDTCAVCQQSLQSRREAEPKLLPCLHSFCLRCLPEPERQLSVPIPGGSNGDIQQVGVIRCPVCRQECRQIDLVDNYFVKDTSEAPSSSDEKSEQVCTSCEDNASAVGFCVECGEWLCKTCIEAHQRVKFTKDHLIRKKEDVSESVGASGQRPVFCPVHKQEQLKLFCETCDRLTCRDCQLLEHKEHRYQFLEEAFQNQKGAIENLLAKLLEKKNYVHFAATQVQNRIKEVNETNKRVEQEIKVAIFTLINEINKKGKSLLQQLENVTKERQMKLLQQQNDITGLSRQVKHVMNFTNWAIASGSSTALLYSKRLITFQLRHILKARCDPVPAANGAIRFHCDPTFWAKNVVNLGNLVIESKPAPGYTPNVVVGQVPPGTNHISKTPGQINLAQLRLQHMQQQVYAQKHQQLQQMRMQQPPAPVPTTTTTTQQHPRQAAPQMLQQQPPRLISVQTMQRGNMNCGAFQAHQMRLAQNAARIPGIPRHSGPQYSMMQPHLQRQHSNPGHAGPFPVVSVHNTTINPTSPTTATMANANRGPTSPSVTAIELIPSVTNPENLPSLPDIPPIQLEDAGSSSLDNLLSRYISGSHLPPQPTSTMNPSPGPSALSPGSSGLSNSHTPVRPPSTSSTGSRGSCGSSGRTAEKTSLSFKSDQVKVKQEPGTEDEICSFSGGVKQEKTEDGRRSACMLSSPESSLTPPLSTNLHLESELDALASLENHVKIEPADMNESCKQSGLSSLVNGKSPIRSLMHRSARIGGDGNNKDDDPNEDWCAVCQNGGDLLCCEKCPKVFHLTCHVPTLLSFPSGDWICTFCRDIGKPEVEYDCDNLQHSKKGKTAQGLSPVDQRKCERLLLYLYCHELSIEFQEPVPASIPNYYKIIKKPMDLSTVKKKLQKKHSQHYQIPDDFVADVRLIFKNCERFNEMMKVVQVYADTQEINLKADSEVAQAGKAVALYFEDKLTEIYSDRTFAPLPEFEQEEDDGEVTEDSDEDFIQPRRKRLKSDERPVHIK
UniProt O15164, whole entry: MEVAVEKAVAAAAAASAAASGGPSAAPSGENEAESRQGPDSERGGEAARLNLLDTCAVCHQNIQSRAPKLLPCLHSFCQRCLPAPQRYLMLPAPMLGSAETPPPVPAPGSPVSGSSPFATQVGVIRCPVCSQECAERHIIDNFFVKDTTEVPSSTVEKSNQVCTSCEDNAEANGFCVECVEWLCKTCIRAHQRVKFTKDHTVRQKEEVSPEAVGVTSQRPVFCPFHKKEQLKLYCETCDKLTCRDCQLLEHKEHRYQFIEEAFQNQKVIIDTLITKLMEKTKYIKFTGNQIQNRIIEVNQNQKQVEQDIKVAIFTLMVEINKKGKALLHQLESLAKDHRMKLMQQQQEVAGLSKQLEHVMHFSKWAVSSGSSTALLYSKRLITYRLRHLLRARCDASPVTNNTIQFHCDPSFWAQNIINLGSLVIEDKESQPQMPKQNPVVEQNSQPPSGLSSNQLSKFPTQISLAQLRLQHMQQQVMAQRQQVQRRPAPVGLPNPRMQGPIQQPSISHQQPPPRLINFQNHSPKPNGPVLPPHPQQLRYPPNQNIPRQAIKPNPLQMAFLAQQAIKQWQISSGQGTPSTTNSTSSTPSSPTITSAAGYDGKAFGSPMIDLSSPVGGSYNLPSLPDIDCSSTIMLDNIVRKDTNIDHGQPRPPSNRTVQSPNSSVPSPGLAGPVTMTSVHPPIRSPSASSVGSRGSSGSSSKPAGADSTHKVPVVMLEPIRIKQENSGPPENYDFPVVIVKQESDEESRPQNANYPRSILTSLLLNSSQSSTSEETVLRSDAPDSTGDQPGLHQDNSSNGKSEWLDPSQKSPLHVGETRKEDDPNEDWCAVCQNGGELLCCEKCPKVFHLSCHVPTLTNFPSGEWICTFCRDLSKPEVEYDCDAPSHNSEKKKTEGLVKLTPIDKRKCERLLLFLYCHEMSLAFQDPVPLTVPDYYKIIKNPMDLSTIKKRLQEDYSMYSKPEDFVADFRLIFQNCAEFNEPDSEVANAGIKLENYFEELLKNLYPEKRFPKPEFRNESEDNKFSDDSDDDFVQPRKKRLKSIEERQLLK

How the values were obtained:
[1] = tested on: recombinant PHD-bromodomain module of TRIM33; experiment: AlphaScreen binding assay, TRIM33 with biotinylated H3K9me3K18ac peptide; details: for selectivity for TRIM33 over TRIM24: plots of TRIM24 vs TRIM33 modulating activity at the indicated concentration(s), FIGS. 2A, 2B, 5, 6
[2] = biological target: recombinant PHD-bromodomain module of TRIM33 (Homo sapiens, UniProt Q9UPN9); experiment: as above
[3] = biological target: TRIM24 (Homo sapiens, UniProt O15164); experiment: AlphaScreen binding assay for TRIM24 (counter-screening assay); details: read-out: IC50 TRIM24; compounds with R7/R7′ shown in FIG. 11A (Table 6)

| selectivity for TRIM33 over TRIM24 [1] | Structure (SMILES) | further results |
| --- | --- | --- |
| selectivity for TRIM33 over TRIM24 | Cc1[nH]cnc1-c1nc2ccccn2c1NC1CCCCC1 | – |
| selectivity for TRIM33 over TRIM24 | COCCNc1c(-c2nc[nH]c2C)nc2cnccn12 | – |
| – | COCCNc1c(-c2c[nH]c(C)n2)nc2ccc(C(=O)OC)cn12 | IC50 ([2]; read-out: TRIM33 modulating activity, compounds shown in Table 2a, called TRIM33 IC50 in title of Table 5, unit inferred): 56900 nM |
| – | COCCNc1c(-c2c[nH]c(C)n2)nc2ccc(Br)cn12 | IC50 [3]: 221 nM; IC50 ([2]; read-out: IC50 TRIM33, compounds with R7/R7′ shown in FIG. 11A (Table 6)): 299 nM |
| selectivity for TRIM33 over TRIM24 | c1cn2c(NC3CCCCC3)c(-c3ccc4nccn4c3)nc2cn1 | Ratio of TRIM24 IC50 over TRIM33 IC50 ([1]; compounds shown in Table 2a): 1.90 |
| selectivity for TRIM33 over TRIM24 | COc1ccc(Nc2c(-c3c[nH]c(C)n3)nc3ccc(Br)cn23)cc1 [pck-9295-016] | – |
| selectivity for TRIM33 over TRIM24 | COCCNc1c(-c2ccc3nccn3c2)nc2cnccn12 | – |
